From PMC11187217, “Anti-adhesive, anti-biofilm and fungicidal action of newly synthesized gemini quaternary ammonium salts” (Scientific Reports, 2024) come the findings set out here.

This series has as its system Salmonella Typhimurium TA98. Briefly: Mutagenicity, Ames test. Particulars: TA98, positive control 100 μg/mL. Here is the method: The mutagenic potential of the tested gemini QAS was determined using the Ames test[83] using Salmonella Typhimurium TA98 and Salmonella Typhimurium TA100 with defects in histidine biosynthesis. The culture of S. Typhimurium TA98 and S. Typhimurium TA100 was incubated with shaking at 37 °C for 18 h, centrifuged (3000 rpm, 5 min) and OD = 1.5 was determined, at a wavelength of λ = 590 nm. The agar was dissolved and cooled to 42 °C. […] The media were incubated for 48 h at 37 °C. The positive control for the S. Typhimurium TA98 strain was acriflavin (100 μg/ml), and for the S. Typhimurium TA100 strain, sodium azide (15 μg/ml). The negative control was the culture without tested compound and with NaCl (0,9%). After incubation, the colonies were counted and the mutagenicity index (MR) was determined—the ratio of the number of revertants resulting from the mutagenic effect of the tested compound to the number of spontaneous revertants. Experiment was performed in three repetitions.
On the technique in general: The Ames test uses bacterial strains that need an amino acid and regain growth without it when mutated back.

For the substance acriflavine [reference compound], the “Mutagenicity ratio (MR)” value was determined as 2.85. Further, the Number of colonies (± SD) was 65.0 ± 1.
